Several values for one entry are separate records, joined by “and”; a condition that tells them apart may be missing. Identical values can stand only once.
Molecular target: T1, Tyrosine-protein kinase JAK3 (Homo sapiens, UniProt P52333)
T1 sequence (P52333 whole entry): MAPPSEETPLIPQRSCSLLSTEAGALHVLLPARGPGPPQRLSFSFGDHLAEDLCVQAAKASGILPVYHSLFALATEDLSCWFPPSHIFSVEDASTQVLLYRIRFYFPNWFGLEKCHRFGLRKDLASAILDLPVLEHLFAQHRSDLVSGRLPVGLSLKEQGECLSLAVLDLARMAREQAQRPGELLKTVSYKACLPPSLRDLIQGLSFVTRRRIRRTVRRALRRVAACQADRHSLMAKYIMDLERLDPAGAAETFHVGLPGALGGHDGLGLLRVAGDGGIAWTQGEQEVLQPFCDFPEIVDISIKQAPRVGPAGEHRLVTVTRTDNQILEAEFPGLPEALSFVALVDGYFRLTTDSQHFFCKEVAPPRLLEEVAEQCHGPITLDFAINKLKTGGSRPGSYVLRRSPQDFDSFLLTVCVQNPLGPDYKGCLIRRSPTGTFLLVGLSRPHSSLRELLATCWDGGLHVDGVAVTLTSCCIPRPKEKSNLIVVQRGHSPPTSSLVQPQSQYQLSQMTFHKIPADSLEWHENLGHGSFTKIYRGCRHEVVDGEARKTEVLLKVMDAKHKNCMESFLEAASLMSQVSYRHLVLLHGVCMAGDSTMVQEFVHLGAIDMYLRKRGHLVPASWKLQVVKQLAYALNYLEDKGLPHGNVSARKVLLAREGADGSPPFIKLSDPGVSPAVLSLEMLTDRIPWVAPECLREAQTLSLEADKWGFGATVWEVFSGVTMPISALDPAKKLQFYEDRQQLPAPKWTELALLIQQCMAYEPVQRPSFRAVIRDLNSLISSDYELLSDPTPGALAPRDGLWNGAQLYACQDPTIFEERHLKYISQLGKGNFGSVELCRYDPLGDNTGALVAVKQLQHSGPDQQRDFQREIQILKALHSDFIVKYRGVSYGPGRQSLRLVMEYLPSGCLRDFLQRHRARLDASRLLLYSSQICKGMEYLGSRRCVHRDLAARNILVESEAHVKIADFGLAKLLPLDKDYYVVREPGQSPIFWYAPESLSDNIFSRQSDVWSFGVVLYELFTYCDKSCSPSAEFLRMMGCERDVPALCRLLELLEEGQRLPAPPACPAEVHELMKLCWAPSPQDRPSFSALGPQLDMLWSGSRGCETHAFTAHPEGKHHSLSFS
Test: Biochemical JAK Kinase Assays: A panel of four LanthaScreen JAK biochemical assays (JAK1, 2, 3 and Tyk2) were carried in a common kinase reaction buffer (50 mM HEPES, pH 7.5, 0.01% Brij-35, 10 mM MgCl2, and 1 mM EGTA). Recombinant GST-tagged JAK enzymes and a GFP-tagged STAT1 peptide substrate were obtained from Life Technologies.Serially diluted compounds were pre-incubated with each of the four JAK enzymes and the substrate in white 384-well microplates (Corning) at ambient temperature for 1 h. ATP was subsequently added to initiate the kinase reactions in 10 μL total volume, with 1% DMSO. […] Kinase reactions were allowed to proceed for 1 hour at ambient temperature before a 10 μL preparation of EDTA (10 mM final concentration) and Tb-anti-pSTAT1 (pTyr701) antibody (Life Technologies, 2 nM final concentration) in TR-FRET dilution buffer (Life Technologies) was added. The plates were allowed to incubate at ambient temperature for 1 h before being read on the EnVision reader (Perkin Elmer).

CCCN1Cc2[nH]c(-c3n[nH]c4cc(-c5cc(F)c(O)cc5CC)ccc34)nc2C[C@@H]1C(=O)N1CC(C)(N(C)C)C1
Ki: 0.25 nM (2×) and 0.4 nM

Reference: ChEMBL document CHEMBL5726314, “JAK inhibitors containing a 4-membered heterocyclic amide” (2019)
